The target in this assay is recombinant human Myt1 (Homo sapiens (Human), UniProt Q99640). Nature of the assay: Myt1 enzymatic assay (ADP-Glo kinase assay). The conditions noted are these: read-out: Myt1 IC50, recombinant human Myt1 18 nM, ATP 10 μM. (In ADP-Glo the light output rises with the ADP produced.)

Amino acid sequences for entries named in this document (tags omitted).
UniProt Q99640, whole entry: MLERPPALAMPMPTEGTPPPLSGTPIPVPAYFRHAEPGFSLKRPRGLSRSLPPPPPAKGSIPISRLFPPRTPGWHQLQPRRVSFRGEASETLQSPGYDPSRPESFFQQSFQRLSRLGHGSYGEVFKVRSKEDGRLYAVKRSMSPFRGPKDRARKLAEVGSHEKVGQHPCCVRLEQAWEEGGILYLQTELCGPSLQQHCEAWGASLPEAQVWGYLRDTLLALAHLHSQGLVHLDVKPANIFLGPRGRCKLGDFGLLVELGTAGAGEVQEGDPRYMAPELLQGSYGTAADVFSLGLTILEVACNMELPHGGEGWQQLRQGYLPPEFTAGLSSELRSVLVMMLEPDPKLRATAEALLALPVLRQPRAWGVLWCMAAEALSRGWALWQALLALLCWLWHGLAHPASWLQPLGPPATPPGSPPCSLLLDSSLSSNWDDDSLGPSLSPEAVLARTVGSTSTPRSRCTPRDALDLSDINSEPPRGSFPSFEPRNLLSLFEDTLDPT

SMILES strings stand for the structures.

Broadly, the IC50 is the concentration that gives 50% inhibition.

Take `Nc1c(-c2cccc3[nH]ncc23)cc(-c2nccs2)c2nc(-c3nccs3)[nH]c(=O)c12`: the IC50 amounted to 11 nM.

Take `CO[C@H](C)COc1cccc(-c2cc(-c3cccc4[nH]ncc34)c(N)c3c(=O)[nH]c(-c4ccncc4)nc23)n1`: the IC50 came to 3 nM.
